Screens: PubChem BioAssay, National Center for Advancing Translational Sciences (NCATS)
Sfp PPTase inh: qHTS Assay for Inhibitors of Bacillus subtilis Sfp phosphopantetheinyl transferase (PPTase). Biochemical Sfp PPTase activity, qHTS. Potency, µM, inactives show max response, negative = inhibition, most hits filed as inhibitors. hit rate 3.5% among 310,000. 4'-phosphopantetheinyl transferase ffp (Bacillus subtilis), Q9F4F7; active = well fitted inhibition curve with a large enough effect; inconclusive = small, poorly fitted or top-dose-only effect, or another doubt; inactive = no such curve, though single readings can be large or run the other way;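 note: the enzyme is Sfp with the accession as filed and its product quenches rhodamine fluorescence; potency is the fitted concentration of half-maximal effect; 0% = enzyme reaction without inhibitor and -100% = no enzyme wells; top concentration of the series not given in the record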
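Compounds were incubated with enzyme (final 15 nM) for 15 min at room temperature before substrate addition started the reaction. Fluorescence at 525 nm excitation, 598 nm emission was recorded immediately and after 30 minutes.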
miR-21 FLuc: raises the signal of a miR-21 reporter; HeLa miR-21 FLuc reporter, luciferase, 48 h; Potency, µM (highest dose often 38.3 µM), inactives show at the highest dose reporter change, positive = more light; 340,000 tested, under 10 active; active = well fitted rising curve with a large enough effect; inconclusive = small, poorly fitted or top-dose-only effect; inactive = no such curve, though single readings can be large or run the other way;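 note: % of control where 0% means no effect; miR-21 action dims this reporter so a rising signal means less miR-21 action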
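Compounds were titrated across several concentrations (up to approximately 40 uM) and incubated 48 hours with HeLa miR-21-FLuc reporter cells (miR-21 target sequence downstream of FLuc, endogenous miR-21). Readout was firefly luciferase luminescence after lytic detection reagent.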
G9a inh: blocks human histone lysine methyltransferase G9a | 350,000 tested, 8.8% active | Potency, µM (doses to about 102 µM), for inactives: top-dose activity, negative = inhibition, hits mostly inhibitors | G9a H3K9 monomethylation, AlphaScreen, 2 h; note: potency is the fitted concentration of half-maximal effect; % is set by controls: 0 for no effect and ±100 for the full control effect; nearly all actives have a fitted effect of over 75% in size
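Using a bead-based AlphaScreen, monomethylated H3K9 product from 2 h room-temperature reactions (G9a 20 nM, peptide 500 nM, SAM 20 uM) was detected with 0.5 ug/mL rabbit anti-H3K9me1 antibody.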
LMNA splice mod: modulators of lamin A splicing. HeLa LMNA splicing GFP/RFP minigene ratio, 48 h. Potency, µM (top dose mostly 46.1 µM), inactives show at the top dose ratio change, negative = inhibition, most hits filed as inhibitors. 200,000 tested, 0.01% active. AID 1487; active = well fitted inhibition curve with a large enough effect in the signal ratio, with a control signal flat, not every such curve was filed as active; inconclusive = small, poorly fitted or top-dose-only effect, or effect the other way, or a change in a side signal; the % refers to the signal ratio; note: potency is the fitted concentration of half-maximal effect; % is set by controls: 0 for no effect and ±100 for the full control effect
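Read-out is the ratio of GFP to DsRed2 object intensity, acquired by 488 nm laser-scanning cytometry on HeLa lamin A-EGFP minigene reporter cells. Compound incubation 48 hrs at 37 °C in Opti-MEM with 2% FBS; DMSO 0.5% final.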
ALDH1A1 inh: ALDH1A1 (human) enzyme inhibition | Purified ALDH1A1, NADH fluorescence, propionaldehyde substrate | Potency, µM (top dose mostly 75.3 µM), without a hit: top-dose activity, negative = inhibition, actives largely listed as inhibitors | AID 1030 | 220,000 tested, 7.3% active; active = well fitted inhibition curve with a large enough effect, not every such curve was filed as active; inconclusive = small, poorly fitted or top-dose-only effect, or another doubt; inactive = no such curve, though single readings can be large or run the other way;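 note: potency is the fitted concentration of half-maximal effect; plate controls were no enzyme wells and a reference inhibitor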
KDM4E inh: JMJD2E (human) inhibition | JMJD2E catalytic domain, FDH-coupled NADH fluorescence (FDH is formaldehyde dehydrogenase) | Potency, µM (series often up to 57.1 µM), for the others: at the top dose activity change, negative = inhibition, most hits filed as inhibitors | 230,000 tested, 1.6% active | AID 2147; active = well fitted inhibition curve with a large enough effect, not every such curve was filed as active; inconclusive = small, poorly fitted or top-dose-only effect, or another doubt; inactive = no such curve, though single readings can be large or run the other way;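 note: potency is the fitted concentration of half-maximal effect; 0% = wells with enzyme and -100% = buffer wells without enzyme; nearly all actives have a fitted effect of over 50% in size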
* hit, by the source's call; ? = inconclusive; · = not tested or not shown; [ ] = dose if it differs, or a comment. An excerpt weighted towards active compounds, which were near 13% of everything screened. Unless noted, calls come from the whole dose curve; as a rule, active = well fitted curve in the direction sought with a large enough effect; inconclusive = small, poorly fitted or top-dose-only effect, or another doubt; inactive = no such curve, though single readings can be large; an effect the other way counts as inactive or inconclusive.

Start of the data: the first 3 entries, ahead of the listing:
SMILES | Sfp PPTase inh | miR-21 FLuc | G9a inh | LMNA splice mod | ALDH1A1 inh | KDM4E inh
CN(C)c1ccc([C@@H]2[C@@H]([N+](=O)[O-])[C@H]3C=Cc4ccccc4N3[C@H]2C(=O)c2ccc(Cl)cc2)cc1 | -14.3% | -2.8% | 7.94µM* | ? | ? | -9.5%
O=C(c1ccccc1)C1C(c2ccccc2)C1[N+](=O)[O-] (stereo not drawn) | 14.8% | -24.8% | 58.3% | · | · | 2.0%
CCc1ccccc1NC(=O)Cn1nc(C)c2nn(-c3ccc(Cl)cc3)c(C)c2c1=O | · | -1.7% | -1.5%[59 µM] | 11.2%[46 µM] | · | ·

This part in full, previewed entries included:
SMILES | Sfp PPTase inh | miR-21 FLuc | G9a inh | LMNA splice mod | ALDH1A1 inh | KDM4E inh
CN(C)c1ccc([C@@H]2[C@@H]([N+](=O)[O-])[C@H]3C=Cc4ccccc4N3[C@H]2C(=O)c2ccc(Cl)cc2)cc1 | -14.3% | -2.8% | 7.94µM* | ? | ? | -9.5%
O=C(c1ccccc1)C1C(c2ccccc2)C1[N+](=O)[O-] (stereo not drawn) | 14.8% | -24.8% | 58.3% | · | · | 2.0%
CCc1ccccc1NC(=O)Cn1nc(C)c2nn(-c3ccc(Cl)cc3)c(C)c2c1=O | · | -1.7% | -1.5%[59 µM] | 11.2%[46 µM] | · | ·
CCCc1cc(=O)n2c(C(=O)Nc3ccc(OCC)cc3)c(C(=O)Nc3ccc(C)cc3)sc2n1 | · | -0.6% | ? | · | · | ·
CCOC(=O)OCC1OC(c2ccc(C(C)=O)cc2)C=CC1OC(=O)OCC (stereo not drawn) | 13.6% | · | · | · | -17.1%[13.5 µM] | ·
CCN1C(=O)c2cccc3c(S(=O)(=O)Nc4c(C)n(C)n(-c5ccccc5)c4=O)ccc1c23 | 11.6% | -4.4% | 18.7%[59 µM] | 16.3% | 14.1µM* | 2.6%
CCOC(=O)CNS(=O)(=O)c1ccc2c3c(cccc13)C(=O)N2CC | 20.2% | 3.8% | -0.6% | -18.1%[46 µM] | ? | ?
CC(C)c1ccc(N(CC(=O)NC2CCCCC2)C(=O)CCC(=O)Nc2ccccn2)cc1 | -0.6% | -3.1% | 9.5% | · | · | ·
Cc1ccc(-c2nnc3ccc(SCC(=O)Nc4cc(C)on4)nn23)cc1 | 7.2% | -6.0% | ? | 4.6% | 1.6% | ?
CCOC(=O)CC(=O)CSc1ccc2nnc(-c3ccc(F)cc3)n2n1 | 1.2% | 6.4% | -6.4% | 7.1% | -11.9% | ?

By substructure: the entries above with a nitro group on carbon
SMILES | Sfp PPTase inh | miR-21 FLuc | G9a inh | LMNA splice mod | ALDH1A1 inh | KDM4E inh
CN(C)c1ccc([C@@H]2[C@@H]([N+](=O)[O-])[C@H]3C=Cc4ccccc4N3[C@H]2C(=O)c2ccc(Cl)cc2)cc1 | -14.3% | -2.8% | 7.94µM* | ? | ? | -9.5%
O=C(c1ccccc1)C1C(c2ccccc2)C1[N+](=O)[O-] (stereo not drawn) | 14.8% | -24.8% | 58.3% | · | · | 2.0%

Carrying on:
SMILES | Sfp PPTase inh | miR-21 FLuc | G9a inh | LMNA splice mod | ALDH1A1 inh | KDM4E inh
Cc1cc(NC(=O)CSc2ccc3nnc(-c4ccc(F)cc4)n3n2)no1 | 19.7% | -0.9% | 79.4µM* | 2.6% | ? | ?
COC(=O)CSc1ccc2nnc(-c3ccc(F)cc3)n2n1 | 6.0% | -0.2% | 79.4µM* | 7.2% | ? | ?
Cc1[nH]c2ccccc2c1C(=O)C(=O)NC1CC(=O)N(c2ccc(F)cc2)C1 (stereo not drawn) | · | · | 50.1µM* | · | · | ·
COc1ccc(CNC(=O)N2CCc3ccccc3C2)cc1 | 8.6% | -40.1% | 42.9% | · | · | ·
O=c1c2ccccc2nnn1CSc1nnc(Nc2ccccc2)s1 | 14.9% | -14.8% | 44.7µM* | 3.3% | 2.4% | 6.2%
CCOC(=O)Cc1csc(-n2sc3ccccc3c2=O)n1 | 6.31µM* | -19.2% | 1.12µM* | -6.6% | 3.55µM* | 10µM*
CCOC(=O)Cc1csc(SCn2nnc3ccccc3c2=O)n1 | -5.1% | -14.8% | 44.7µM* | ? | ? | -14.6%
CCOC(=O)Cc1csc(NC(=O)c2cc(=O)c3ccccc3o2)n1 | 8.3% | -25.6% | -44.7% | ? | -0.5% | -4.4%
O=c1c2ccccc2nnn1Cc1cccc2ccccc12 | -6.6% | -29.2% | 133.5% | ? | -4.8% | -14.8%
Nn1c(Cc2cccc3ccccc23)nnc1SCn1nnc2ccccc2c1=O | 4.5% | -6.1% | 4.47µM* | -4.2% | -0.7% | -1.8%
CN(C)S(=O)(=O)N1CCC(N2CCN(Cc3ccc(F)cc3)C(=O)C2=O)CC1 | · | -0.2% | 3.4%[59 µM] | · | · | ·
C=C(C)C1CC=C(C)CC1 (stereo not drawn) | 6.1% | · | 26.9%[59 µM] | ? | · | ·
Cc1cccc(NC(=O)CN(CCc2ccccc2)S(C)(=O)=O)c1 | 15.8% | 9.9% | 14.4%[59 µM] | · | · | ·
O=C(NCc1ccccc1)C(c1cccnc1)N(C(=O)c1csnn1)c1ccccc1 (stereo not drawn) | 8.0% | -1.8% | -2.5% | · | · | ·
CCCc1cc2c(=O)c(-c3cscn3)c(C(=O)OCC)oc2cc1O | -16.0% | -9.4% | ? | -6.2%[46 µM] | ? | -14.0%
CCOC(=O)c1[nH]nc(-c2cc(CC)c(O)cc2O)c1-c1cscn1 | -11.7% | 27.3% | · | ? | 8.91µM* | 2.1%
O=S(=O)(Nc1nc2ccc(S(=O)(=O)N3CCCCC3)cc2s1)c1ccccc1 | -18.4% | -0.5% | ? | -8.3% | 0.355µM* | 2.9%
O=C(Nc1nc2ccc(S(=O)(=O)N3CCCC3)cc2s1)c1ccccn1 | -67.2% | -13.3% | 12.6µM* | ? | ? | ?
Cc1ccc2nc(NC(=O)c3ccccn3)sc2c1 | 8.7% | ? | -5.1% | · | -2.7% | -17.2%
CC(=O)Nc1nc2ccc(S(=O)(=O)N3CCCCC3)cc2s1 | 6.9% | -4.0% | 21.4% | · | · | ·
O=[N+]([O-])c1ccc2nc(NS(=O)(=O)c3ccc(Cl)cc3)sc2c1 | 8.4% | -6.6% | 14.1µM* | · | · | ·
O=C(Nc1nc2c(F)cc(F)cc2s1)c1ccccn1 | -7.2% | 22.3% | -52.7% | ? | 10µM* | -24.2%
O=[N+]([O-])c1ccc2nc(NS(=O)(=O)c3ccccc3[N+](=O)[O-])sc2c1 | 8.7% | -23.6% | -8.2% | · | · | ·
Cc1ccc2nc3c(cc(C#N)c(=O)n3-c3nnc(SCc4ccccc4)s3)c(=O)n2c1 | · | -1.1% | -2.2%[59 µM] | · | · | ·
Cc1ccc(S(=O)(=O)Nc2nc3ccc(S(=O)(=O)N4CCCC4)cc3s2)cc1 | -3.6% | 1.2% | ? | 9.1% | 0.159µM* | -4.2%
CC(=O)Oc1ccccc1C(=O)N(C1CCCCC1)C1CCCCC1 | 17.7% | 26.9% | 2.4% | · | · | ·
CC1=C(CC(=O)c2ccc(Cl)cc2)C(=O)c2ccccc2C1=O | 44.7µM* | -28.0% | ? | ? | 2.51µM* | ?
CC1(C)CC(=O)C=C(Nc2ccc(O)c(C(=O)O)c2)C1 | -0.8% | -2.7% | 44.7µM* | · | · | ·
Cc1cccc(NC(=O)c2ccc(-c3nc(CSc4ccccc4)c(C)o3)cc2)c1C | · | 15.1% | -7.4%[59 µM] | · | · | ·
COC(=O)c1ccccc1NC(=O)Cn1c(=O)n(CCCC(=O)NCCc2ccc(OC)c(OC)c2)c(=O)c2ccccc21 | · | -0.2% | -32.1%[59 µM] | · | · | ·
O=C1CC(c2ccccc2)c2cccc(F)c21 (stereo not drawn) | -6.4% | -2.1% | 27.1% | · | · | ·
